Reference: patent US20230000812A1, “IBUPROFEN ESTER PRODRUG, PHARMACEUTICAL COMPOSITION, PREPARATION METHOD AND APPLICATION” (NANJING HERON PHARMACEUTICAL SCIENCE AND TECHNOLOGY CO., …, priority 2020, published 2023)

test: Toxicity of metabolic by-products in the human body; settings: by-products according to the metabolic pathways in the human body

Row | Compound | Toxicity (of metabolic by-products in the human body)
1 | CC(C)Cc1ccc(C(C)C(=O)OC(C)OC(=O)OC2CCCCC2)cc1 (stereo not shown) | Low toxicity
2 | CC(C)Cc1ccc(C(C)C(=O)OC(C)OC(=O)OC(C)C)cc1 (stereo not shown) [Compound N2] | Low toxicity
3 | COC(=O)OC(OC(=O)C(C)c1ccc(CC(C)C)cc1)C(C)C (stereo not shown) | Relatively high toxicity of
4 | COC(=O)OC(C)OC(=O)C(C)c1ccc(CC(C)C)cc1 (stereo not shown) | Relatively high toxicity of
5 | CCOC(=O)OC(CC)OC(=O)C(C)c1ccc(CC(C)C)cc1 (stereo not shown) [Compound N9] | Low toxicity
6 | CCC(OC(=O)OC(C)C)OC(=O)C(C)c1ccc(CC(C)C)cc1 (stereo not shown) | Low toxicity
7 | CCC(OC(=O)OC1CCCCC1)OC(=O)C(C)c1ccc(CC(C)C)cc1 (stereo not shown) | Low toxicity
8 | CC(C)Cc1ccc(C(C)C(=O)OC(C)(C)OC(=O)OC(C)C)cc1 (stereo not shown) | Low toxicity
9 | CCOC(=O)OC(C)OC(=O)C(C)c1ccc(CC(C)C)cc1 (stereo not shown) [Compound N6] | Low toxicity
10 | CCOC(=O)OC(C)(C)OC(=O)C(C)c1ccc(CC(C)C)cc1 (stereo not shown) | Low toxicity
